Screening data (PubChem BioAssay)
ARFGAP1 inhibitor: inhibitors of rat ARFGAP1 | Q62848 | Arfgap1-stimulated ARF1 GTP hydrolysis, GDP FP detection | inhibition, % at 16.5 µM | 0.26% of 360,000 active | AID 651572;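 active means inhibition above a per-plate limit, mean inhibition of low control wells plus 3 SD, cut at about 25% in these data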;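 further: 0% = DMSO wells with enzyme and 100% = wells lacking Arfgap1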
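material = rat Arfgap1 catalytic domain, aa 1-136 | also added = human ARF1(Δ1-17)-GTP substrate | compound dosing = one concentration, 16.5 µM, DMSO 1.26% | times = GTP hydrolysis reaction 2 h at 25 °C | measured by = FP, GDP Alexa 633 tracer displaced from anti-GDP antibody, 620/688 nm | evaluation = percent inhibition of Arfgap1-stimulated GTP hydrolysis | replication = single well per compound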
UUG fidelity: yeast start codon fidelity modulation; AID 602363; activity score, % at 18.7 µM; S. cerevisiae UUG-firefly luciferase reporter, luminescence/redox ratio; 0.13% of 350,000 active;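 active means replicate mean at a twofold rise or more, about +100% in these data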;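 further: firefly luciferase made from a UUG start codon reports start codon fidelity; reporter light over untreated wells divided by growth signal over untreated wells; some hits fall short of that in this replicate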
MC4R antagonist: human MC4R antagonism in cAMP assay | P32245 | MC4R-expressing cells, MTII-stimulated cAMP, LANCE TR-FRET | inhibition, % at 6.5 µM | 0.48% of 360,000 active | AID 540295;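 active means inhibition above its plate's cutoff, the mean of tested wells on that plate plus 3 SD, cut at about 29% in these data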;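 further: 0% = Melanotan II alone and 100% = Melanotan II plus saturating MCL0020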
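system = U2OS cells with stable human MC4R expression | also added = Melanotan II challenge after compound preincubation | dosing = one concentration, 6.5 µM nominal | incubation = compound 30 min, challenge 1 h, detection 1 h | measured by = TR-FRET with Eu-cAMP and labeled anti-cAMP, 671 nm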
NRP1-CendR mod: alters CendR peptide binding to human NRP-1; inhibition, % at 25 µM; FAM-RPARPAR peptide binding to NRP-1, fluorescence polarization; O14786; 0.85% of 360,000 active; AID 602438;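 active means inhibition or corrected inhibition above about 18%, plus a signal ratio from 0.5 to 1.5, limit read from the data, passing the limit was not always enough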
ASAP1 GAP inh: inhibitors of human ASAP1 ArfGAP activity | Q9ULH1 | AID 624377 | ASAP1-stimulated ARF1 GTP hydrolysis, GDP FP detection | 0.19% of 360,000 active | inhibition, % at 16.5 µM; in the data active means inhibition above about 25%;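 further: 0% = vehicle with enzyme and substrate and 100% = no enzyme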
MC4R barr agon: activates human MC4R beta-arrestin recruitment; U2OS MC4R beta-arrestin complementation, luminescence; percent of melanotan II response, DMSO zero; activation, % at 8.9 µM; 0.98% of 360,000 active;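 active means activation above a per-plate cutoff, the mean activation of sample wells on that plate plus 3 SD, cut at about 8% in these data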
The depositor's hits bear a star; nt = not tested or not shown. A selection: hits, their analogues and other compounds. The true share with any hit is near 2.3%.

| # | ARFGAP1 inhibitor | UUG fidelity | MC4R antagonist | NRP1-CendR mod | ASAP1 GAP inh | MC4R barr agon | Molecule |
| --- | --- | --- | --- | --- | --- | --- | --- |
| 1 | nt | 13 | 78* | 14 | nt | -2 | C#CCOCCOCCOCCNc1nc(N2CCN(C(=O)CCCCCCCCCCNC(=O)[C@H](CCCCN)n3cc(CCO)nn3)CC2)nc(N2CCN(C(=O)CCCCCCCCCCNC(=O)[C@H](CCCN=C(N)N)n3cc(C[C@@H](C)CC)nn3)CC2)n1 |
| 2 | 1 | -5 | 4 | 14 | 8 | -2 | C#CCOCCOCCOCCNc1nc(N2CCN(C(=O)[C@H](CCCCN)n3cc([C@@H](N)[C@H](C)CC)nn3)CC2)nc(N2CCN(C(=O)[C@H](CCCCN)n3cc([C@@H](N)CC(N)=O)nn3)CC2)n1 |
| 3 | nt | 2 | 52* | 3 | nt | -1 | C#CCOCCOCCOCCNc1nc(N2CCN(C(=O)CCCCCCCCCCNC(=O)[C@H](CCCCN)n3cc(C)nn3)CC2)nc(N2CCN(C(=O)CCCCCCCCCCNC(=O)[C@@H]([C@H](C)CC)n3cc(CCCCCN)nn3)CC2)n1 |
| 4 | nt | -10 | 41* | 8 | nt | 2 | C#CCOCCOCCOCCNc1nc(N2CCN(C(=O)CCCCCCCCCCNC(=O)[C@@H](CCSC)n3cc(CCO)nn3)CC2)nc(N2CCN(C(=O)CCCCCCCCCCNC(=O)[C@H]([C@@H](C)CC)n3cc(CCCCN=C(N)N)nn3)CC2)n1 |
| 5 | 6 | 0 | 5 | 22* | -5 | -1 | C#CCOCCOCCOCCNc1nc(N2CCN(C(=O)[C@H](CCCCN)n3cc([C@@H](N)C(C)CC)nn3)CC2)nc(N2CCN(C(=O)[C@H](CCCCN)n3cc([C@@H](N)CC(C)C)nn3)CC2)n1 (some centres undefined) |
| 6 | nt | 10 | 4 | 6 | nt | -1 | C#CCOCCOCCOCCNc1nc(N2CCN(C(=O)CCCCCCCCCCNC(=O)[C@H](CCCCN)n3cc(CCCC(=O)O)nn3)CC2)nc(N2CCN(C(=O)CCCCCCCCCCNC(=O)[C@H](CCCN=C(N)N)n3cc(C[C@@H](C)CC)nn3)CC2)n1 |
| 7 | nt | -11 | nt | nt | nt | nt | C[C@@H]1CN([C@H](C)CO)S(=O)(=O)c2ccc(C#CC(C)(C)O)cc2O[C@H]1CN(C)Cc1ccncc1 |
| 8 | nt | 3 | 32* | 6 | nt | 1 | C#CCOCCOCCOCCNc1nc(N2CCN(C(=O)CCCCCCCCCCNC(=O)Cn3cc(C[C@@H](C)O)nn3)CC2)nc(N2CCN(C(=O)CCCCCCCCCCNC(=O)[C@H](CCCCN)n3cc(C[C@@H](C)CC)nn3)CC2)n1 |
| 9 | 17 | -13 | 14 | -14 | -4 | -1 | C#CCOCCOCCOCCNc1nc(N2CCN(C(=O)CCCCCCCCCCNC(=O)Cn3cc(C[C@@H](C)O)nn3)CC2)nc(N2CCN(C(=O)CCCCCCCCCCNC(=O)Cn3cc(C[C@@H](C)O)nn3)CC2)n1 |
| 10 | -5 | nt | 8 | 2 | -2 | -1 | COc1ccccc1C(CC(=O)Nc1ccc(Cl)cc1)c1ccc(OC(C)C)cc1 (centres undefined) |
| 11 | -2 | nt | 10 | -6 | 9 | 9.3* | CC(C)Oc1ccc(CNC(=O)CC(c2ccccc2)c2cc(Cl)ccc2O)cc1 (centres undefined) |
| 12 | 2 | nt | 0 | -8 | 19 | 8.3* | CCCNC(=O)Cn1c(-c2ccc(F)cc2)cc(C(=O)OCC)c1C |
| 13 | 10 | nt | 16 | 8 | 3 | 0 | CCOC(=O)c1cc(-c2ccc(F)cc2)n(CC(=O)NC(C)CC)c1C (centres undefined) |
| 14 | 14 | 0 | 2 | 17* | -5 | -3 | CCCOC(=O)Nc1cc(OC)c(Cl)cc1OC |
| 15 | 10 | -8 | 3 | -3 | 2 | 4 | CCCCOC(=O)Nc1cc(C)c(Cl)cc1OC |

| # | ARFGAP1 inhibitor | UUG fidelity | MC4R antagonist | NRP1-CendR mod | ASAP1 GAP inh | MC4R barr agon | Molecule |
| --- | --- | --- | --- | --- | --- | --- | --- |
| 16 | 2 | -12 | -4 | 25* | -16 | -1 | O=C(Nc1ccccc1N1CCOCC1)c1ccc(N2CCCC2=O)cc1 |
| 17 | 5 | nt | -7 | 32* | 18 | 2 | CCOC(=O)c1c2c(n(Cc3ccccc3)c1C)C(=O)C(=O)c1ccccc1-2 |
| 18 | -4 | -31 | -2 | 14 | 17 | -1 | CCOC(=O)c1c2c(n(C)c1C)C(=O)C(=O)c1ccc(Br)cc1-2 |
| 19 | -9 | -8 | 4 | 35* | 18 | 0 | NC(=O)N1c2ccccc2CC(=O)c2ccccc21 |
| 20 | -1 | -8 | 0 | 1 | -8 | 0 | NC(=O)N1c2ccccc2C=Cc2ccccc21 |
| 21 | 8 | -9 | 3 | 30* | -6 | 1 | Cc1cc(C(=O)N2CCCC(N3CCN(c4cccc(Cl)c4)CC3)C2)nn1C (centres undefined) |
| 22 | 6 | 0 | -2 | 19* | 8 | 0 | CC(C(=O)NCC1CCCO1)N1C(=O)C2C3CC(C(Br)C3Br)C2C1=O (centres undefined) |
| 23 | -4 | 3 | 7 | 31* | 12 | -2 | COC(=O)C1N[C@@H]([C@@H](NC(=O)COc2ccccc2)C(=O)NC2CC2)SC1(C)C (some centres undefined) |
| 24 | -7 | 13 | 0 | 18 | 9 | -2 | COC(=O)C1N[C@@H]([C@@H](NC(=O)COc2ccccc2)C(=O)Nc2ccc(OC)cc2)SC1(C)C (some centres undefined) |
| 25 | 12 | -15 | 1 | -24 | -2 | -1 | CC1(C)Cc2c(C#N)c(NCC3CCCO3)nc(-c3ccco3)c2CO1 (centres undefined) |
| 26 | 9 | -15 | -2 | 27* | 3 | -1 | N#Cc1c(-c2ccco2)nc(NCC2CCCO2)[nH]c1=O (centres undefined) |
| 27 | 3 | 2 | 3 | 38* | 5 | -2 | Cc1cccc(CSc2nnc(-c3cnccn3)n2C)c1 |
| 28 | 0 | -16 | 4 | 17 | 3 | 0 | Cn1c(SCc2ccccn2)nnc1-c1cnccn1 |
| 29 | nt | -8 | 13 | -16 | nt | 9.9* | CC1CCN(CCNC(=O)c2ccc3c(=O)n(Cc4ccc(Cl)cc4)c(=S)[nH]c3c2)CC1 |
| 30 | nt | -9 | 1 | 21* | nt | 1 | Cc1ccc(C)c(N2CCN(C(=O)c3cc4ccccn4n3)CC2)c1 |

An excerpt of these results, tab-delimited:
nr	molecule	ARFGAP1 inhibitor	UUG fidelity	MC4R antagonist	NRP1-CendR mod	ASAP1 GAP inh	MC4R barr agon
5	C#CCOCCOCCOCCNc1nc(N2CCN(C(=O)[C@H](CCCCN)n3cc([C@@H](N)C(C)CC)nn3)CC2)nc(N2CCN(C(=O)[C@H](CCCCN)n3cc([C@@H](N)CC(C)C)nn3)CC2)n1 (some centres undefined)	6	0	5	22*	-5	-1
6	C#CCOCCOCCOCCNc1nc(N2CCN(C(=O)CCCCCCCCCCNC(=O)[C@H](CCCCN)n3cc(CCCC(=O)O)nn3)CC2)nc(N2CCN(C(=O)CCCCCCCCCCNC(=O)[C@H](CCCN=C(N)N)n3cc(C[C@@H](C)CC)nn3)CC2)n1	nt	10	4	6	nt	-1

The main list resumes, repeating the 3 entries before the break.
| # | ARFGAP1 inhibitor | UUG fidelity | MC4R antagonist | NRP1-CendR mod | ASAP1 GAP inh | MC4R barr agon | Molecule |
| --- | --- | --- | --- | --- | --- | --- | --- |
| 28 | 0 | -16 | 4 | 17 | 3 | 0 | Cn1c(SCc2ccccn2)nnc1-c1cnccn1 |
| 29 | nt | -8 | 13 | -16 | nt | 9.9* | CC1CCN(CCNC(=O)c2ccc3c(=O)n(Cc4ccc(Cl)cc4)c(=S)[nH]c3c2)CC1 |
| 30 | nt | -9 | 1 | 21* | nt | 1 | Cc1ccc(C)c(N2CCN(C(=O)c3cc4ccccn4n3)CC2)c1 |
| 31 | nt | 17 | nt | nt | nt | nt | C[C@@H]1CCCCO[C@H](CN(C)S(=O)(=O)c2ccccc2)[C@H](C)CN([C@@H](C)CO)C(=O)c2cc(NS(=O)(=O)c3ccccc3)ccc2O1 |
| 32 | nt | 7 | nt | nt | nt | nt | COc1ccccc1CNC(=O)C[C@@H]1CC[C@H]2[C@@H](COC[C@@H](O)CN2C(=O)Nc2ccc(Cl)cc2)O1 |
| 33 | nt | -2 | nt | nt | nt | nt | O=C(C[C@@H]1C=C[C@H](NC(=O)c2ccccc2)[C@H](CO)O1)NCCc1ccncc1 |
| 34 | 5 | -21 | -1 | 24* | 2 | 0 | Cc1noc(C)c1C(=O)OCC(=O)NCc1ccccc1 |
| 35 | -4 | -16 | 8 | 1 | -3 | -1 | Cc1ccc(CNC(=O)COC(=O)c2c(C)noc2C)cc1 |
